In patent US20170190774A1:

Molecular target: human FSH receptor expressed on HEK 293 cells (human) (UniProt P23945)
Test: cell-based or functional assay

## ovine FSH (oFSH) (from UniProt P01218 25-120; P01227 20-129) (ligand)
  EC50 of oFSH alone, cAMP (GloSensor), HEK 293 cells with the human FSH receptor: 2.36 nM
